Test results from ChEMBL document CHEMBL5331109, “Design and Pharmacological Chaperone Effects of N-(4'-Phenylbutyl)-DAB Derivatives Targeting the Lipophilic Pocket of Lysosomal Acid α-Glucosidase” (J Med Chem, 2023).

System: Lysosomal alpha-glucosidase (Homo sapiens), P10253 [M519V]
Assay: Induction of GAA M519V mutant activity in Pompe patient fibroblast cells assessed as fold increase in intracellular activity using 4- methylumbelliferyl-alpha-D-glucopyranoside measured after 7 days at 10 uM relative to control
Format: cell-based
Conditions: time 7.0 day

- fold change (FC): 5.7
SMILES: CCCCN1C[C@@H](O)[C@H](O)[C@H]1CO
